The values that follow are results of earlier work, collected in patent US8048872B2, “Treatment of hyperproliferative diseases with vinca alkaloid N-oxide and analogs” (Stat of Oregon Acting by and Through The Oregon State Board …, priority 2006, dated 2011).

For the series the following is noted: cited from earlier work.
The mark [1] stands for this setting: non-Hodgkin's lymphoma, Cyclophosphamide 1000 mg/m^2 IV day 1, Fludarabine 20 mg/m^2/d days 1-5, every 28 days.

With Cyclophosphamide + Fludarabine, where the note is “human, in vivo, iv”, the Infectious toxicity entry is “Infectious toxicity 11%” and the “Neutropenia (first cycle, without growth factor) Grade IV” value is “Grade IV 28%”. For the same substance, for the setting “non-Hodgkin's lymphoma, Cyclophosphamide 1000 mg/m^2 IV day 1, Fludarabine 20 mg/m^2/d days 1-5”, the “Neutropenia (first cycle, without growth factor) Grade III” value is recorded as “Grade III 26%”. For the same substance, the Pulmonary toxicity entry (non-Hodgkin's lymphoma, Cyclophosphamide 1000 mg/m^2 IV day 1, Fludarabine 20 mg/m^2/d days 1-5, every 28 days, Grade III-IV) was “Pulmonary toxicity 18%”. Under setting [1], the “Neutropenia (all cycles) Grade III” value is “Grade III 25% of cycles” and the “Neutropenia (all cycles) Grade IV” value is recorded as “Grade IV 18% of cycles”.
As to Paclitaxel + Carboplatin, under “human, in vivo, iv”, the “Anemia Grade III-IV” value is recorded as 34%, the Anorexia result is “Anorexia 23%”, the Fatigue entry is given as “Fatigue 21%” and the “Febrile Neutropenia” value is listed as “Febrile Neutropenia 13%”. For the same substance, under “human, in vivo, iv”, the “Hospitalization (for IV antibiotics)” value is on record as “IV antibiotics) 13%”, the Myalgia/Arthralgia result is given as “Myalgia/Arthralgia 6%”, the Neuropathy result is recorded as “Neuropathy 20%” and the Neurotoxicity result is “Neurotoxicity 1%”. Moreover, where the note is “human, in vivo, iv”, the “Neutropenic Fever” value was “Neutropenic Fever 12%” and the Paresthesias result was “Paresthesia 2%”.
Regarding cyclophosphamide+fludarabine, for the setting “human, in vivo”, the “discontinuation of treatment because of pulmonary toxicity” value is 11% and the “patients developing grade III or IV pulmonary toxicity” value was 18%.
